SMILES strings stand for the structures.

What all share (format): cell-based
Assay [1] deals with BaF3. The experiment in a line: PROTAC activity at CRBN/KIF5B-RET (unknown origin) expressed in mouse BaF3 cells assessed as induction of RET degradation by measuring fold change at 1000 nM measured after 6 hrs by Western blot analysis. In general terms: In western blotting, separated proteins are transferred to a membrane and probed.
The test system of assay [2] is BaF3. Briefly: PROTAC activity at CRBN/KIF5B-RET (unknown origin) expressed in mouse BaF3 cells assessed as induction of RET degradation by measuring fold change at 10 nM measured after 6 hrs by Western blot analysis. The settings on record: Homo sapiens.
The test system of assay [3] is BaF3. The experiment in a line: PROTAC activity at CRBN/KIF5B-RET (unknown origin) expressed in mouse BaF3 cells assessed as induction of RET degradation by measuring fold change at 100 nM measured after 6 hrs by Western blot analysis. The settings on record: Homo sapiens.

On to `COc1ccc(CN2C3CC2CN(c2ccc(-c4cc(-c5cnn(C6CCN(CCCCCC#Cc7cccc8c7CN(C7CCC(=O)N(C)C7=O)C8=O)CC6)c5)cn5ncc(C#N)c45)cn2)C3)cn1` (stereo not drawn), for which the fold change (FC) in the assay with BaF3 [1] was found to be 0.9; in the assay with BaF3 [2] it was 1; with BaF3 [3], 1.

Source of the values: ChEMBL document CHEMBL6087474, “Discovery of an Efficacious RET PROTAC Degrader with Enhanced Antiproliferative Activity against Resistant Cancer Cells Harboring RET Solvent-Front Mutations” (J Med Chem, 2025).
